Here are results for 2 compounds from US9765018B2, “IDO inhibitors” (BRISTOL-MYERS SQUIBB COMPANY, priority 2013, dated 2017).

Protein sequences, listed by entry. Tags and fused reporters are not part of them.
UniProt P14902, whole entry: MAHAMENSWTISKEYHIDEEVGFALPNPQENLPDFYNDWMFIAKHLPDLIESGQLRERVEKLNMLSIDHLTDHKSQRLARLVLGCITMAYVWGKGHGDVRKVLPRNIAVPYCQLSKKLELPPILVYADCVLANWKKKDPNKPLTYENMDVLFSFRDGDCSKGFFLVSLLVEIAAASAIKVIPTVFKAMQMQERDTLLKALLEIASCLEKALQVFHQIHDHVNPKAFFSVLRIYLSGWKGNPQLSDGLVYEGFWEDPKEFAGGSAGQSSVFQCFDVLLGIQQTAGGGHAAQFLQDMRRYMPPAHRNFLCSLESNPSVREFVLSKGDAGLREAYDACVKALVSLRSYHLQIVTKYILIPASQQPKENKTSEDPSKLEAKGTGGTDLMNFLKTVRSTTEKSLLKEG

This assay has as its target IDO (Homo sapiens (Human), UniProt P14902). In words: LLE_IDO_ABS_DR (IDO assay, method not described). Particulars: read-out: LLE_IDO_ABS_DR (IC50).

As to `Cc1ccc(NC(=O)Nc2cc(-c3ccccc3-c3nnn[nH]3)cc(C/C=C/C(F)(F)F)c2OCCC(F)(F)F)cc1`, the IC50 was 650 nM.

For `O=C(Nc1ccccc1F)Nc1cc(-c2ccccc2-c2nnn[nH]2)cc(C/C=C/C(F)(F)F)c1OCCC(F)(F)F`, the IC50 was 140 nM.
